AlphaSeq binding of Ab-95 light chain variants to a spike HR2 peptide

Data: MIT Lincoln Laboratory AlphaSeq set, Engelhart et al. 2022, doi:10.1038/s41597-022-01779-4, as distributed in FLAb.

All variants were tested on one target, the spike HR2 peptide PDVDLGDISGINAS (SARS-CoV-2).

Parent scFv Ab-95: VH joined to VL by the linker GGGGSGGGGSGGGGS. Changes lie in the light chain CDRs alone.
VH: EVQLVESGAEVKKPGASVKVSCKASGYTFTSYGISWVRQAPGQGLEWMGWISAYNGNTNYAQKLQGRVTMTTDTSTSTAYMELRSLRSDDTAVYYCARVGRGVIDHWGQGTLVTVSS
VL: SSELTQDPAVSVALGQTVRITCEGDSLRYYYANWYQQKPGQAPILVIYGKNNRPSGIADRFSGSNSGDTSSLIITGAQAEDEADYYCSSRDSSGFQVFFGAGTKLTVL

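The starting antibody came from a phage panning campaign against this peptide. AAYL52 was designed without a model: most single CDR substitutions and a random sample of double and triple ones. AlphaSeq pools MATa yeast showing the antibodies with MATalpha yeast showing the peptide. After mating in shaken culture at 30 °C for 16 h, diploids were selected and their barcode pairs sequenced. A regression on co-assayed BCL2-family reference pairs converts the normalised counts of each replicate to an apparent Kd. Mating was done three times.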

Variants are written as CDR1, CDR2 and CDR3 of the light chain (limits as in the source). Parent: EGDSLRYYYAN, GKNNRPS, SSRDSSGFQVF.
Numbers give log10(Kd / nM), so 0 is 1 nM and 3 is 1 µM. Smaller is tighter.
An entry "ND" has no value in the source: the pair was not observed among the diploids in that replicate. This suggests poor binding but is not conclusive.
Empty control strains, which show no peptide, gave a signal in 28% of pairings with library AAYL52; the median was 3.91 and 95% of these signals were weaker than 2.90. No background was subtracted. For each scFv, signals with the empty controls are counted beside the result, with their mean in brackets.

| # | CDR-L1 | CDR-L2 | CDR-L3 | log10 Kd, replicates | empty controls |
|---|---|---|---|---|---|
| 1 | EGDSLRYYYAN | GKENRPS | SSRDSSIFQVR | ND 5.04 ND | 0/9 |
| 2 | DGDSLRYGYAN | GKNNRPS | SSRDVSGFQVF | 0.79 0.63 0.10 | 6/9 (3.75) |
| 3 | EGDSLRYYDAN | GKNNRPS | SSRDSSKFQMF | ND ND ND | 1/9 (3.35) |
| 4 | EMDSLRYYYAN | GKNNRPS | SSQDSSGFQVF | ND 3.93 ND | 1/9 (2.80) |
| 5 | EGDSLRYYYQN | GKQNRPS | SSRMSSGFQVF | ND ND ND | 2/9 (4.33) |
| 6 | EGDSLQYYYHN | GKNNRPS | SSRDSSGLQVF | 3.70 4.26 ND | 4/9 (3.93) |
| 7 | EGDSLRYYYAN | GKNPRPS | SSRDSSGTQVL | 4.28 4.18 ND | 1/9 (5.44) |
| 8 | EGDSLSYYYAN | GKNNRPS | VSRDSCGFQVF | ND ND ND | 0/9 |
| 9 | QGDSLRYYYAN | GKNNRPS | SSRDSSGCQDF | 2.78 2.41 3.00 | 4/9 (4.85) |
| 10 | EGDSLRYYYAN | HKNNYPS | SSRDSSGFQVV | 3.72 ND ND | 3/9 (5.25) |
| 11 | EGDSLRYYYAN | GKNNRPS | SSQDSSGSFVF | ND ND 3.19 | 0/9 |
| 12 | DGDSLRYYYAN | GKKNRPS | SSRDSSGFQTF | 4.19 ND 3.13 | 4/9 (3.43) |
| 13 | EGDSLRYYYAN | GKNNRPM | SSRDSSHVQVF | ND 3.30 4.25 | 2/9 (4.17) |
| 14 | VGDSLRYYYAN | GKNNCPS | SSRDRSGFQVF | 4.37 4.29 3.79 | 2/9 (4.43) |
| 15 | EGDSLRYYYDN | PKLNRPS | SSRDSSGFQVF | ND ND ND | 4/9 (4.62) |
| 16 | EGDSLRYWYAN | GYNNRPS | ASRDSSGFQVF | 4.00 2.81 2.83 | 2/9 (4.45) |
| 17 | EGDSLRYYKAN | EKNPRPS | SSRDSSGFQVF | ND ND ND | 3/9 (3.29) |
| 18 | EGDELRYYYAN | GKNNRPS | SSRDSNGFQVF | 2.74 ND ND | 2/9 (4.32) |
| 19 | EGDWLRYQYAN | GKNNRPS | SSRDSSFFQVF | 1.43 1.29 0.76 | 5/9 (4.03) |
| 20 | EGDSLTYWYAN | GKNNRPS | SSRDSSGFFVF | 3.20 4.04 3.48 | 3/9 (3.97) |
| 21 | EGDSLRYYYAN | GAFNRPS | SSRDSSGFEVF | 3.16 3.71 2.93 | 4/9 (4.82) |
| 22 | EGDSLRYYYAN | GKCNRPS | SSRDISSFQVF | 4.14 3.93 4.16 | 4/9 (3.43) |
| 23 | EGDSLYYYYAN | GPNNRPS | SSRDSSRFQVF | ND ND ND | 2/9 (4.22) |
| 24 | EQDSLRYYYAN | GKNNRPS | SSRDNSGFQQF | ND ND ND | 0/9 |
| 25 | EGDSLGYCYAN | GKNFRPS | SSRDSSGFQVF | 2.76 3.59 3.62 | 1/9 (4.52) |
| 26 | EGDSLRYYYDN | GKNNRPS | SSRPSSAFQVF | 4.96 3.72 ND | 1/9 (4.36) |
| 27 | EGDALRYYYAN | AKNNRPS | SSRDSSVFQVF | 3.20 3.86 4.16 | 2/9 (3.75) |
| 28 | EGDSLRYYYAN | GKGNRPS | SSRPSSGVQVF | 2.90 3.18 2.58 | 3/9 (4.13) |
| 29 | EGDSLRYYYAN | NKNNRPS | SSRDSSGDQVF | 2.34 3.25 1.81 | 2/9 (4.34) |
| 30 | EGHSLRYYYAN | GKNTRFS | SSRDSSGFQVF | 3.74 3.60 2.74 | 2/9 (4.16) |
| 31 | EGDSLRYYYAN | GKNNRPS | IDRDSSGFPVF | 2.66 2.71 2.49 | 3/9 (4.55) |
| 32 | EGHSLRYYYAN | GKENIPS | SSRDSSGFQVF | ND ND ND | 0/9 |
| 33 | EGDCLRYYYAN | GKNNRWS | SSRDSHGFQVF | ND 5.54 ND | 1/9 (3.38) |
| 34 | EGDSLRYYHAN | GKNNRIS | SSRDSSGGQVF | 3.43 2.68 2.63 | 4/9 (4.36) |
| 35 | EGDSLRYCRAN | GKNNRPS | SSRDSSAFQVF | ND ND ND | 1/9 (3.80) |

From the list, the first 5 with no signal in any replicate:

CDR-L1	CDR-L2	CDR-L3	log10 Kd, replicates	empty controls
EGDSLRYYDAN	GKNNRPS	SSRDSSKFQMF	ND ND ND	1/9 (3.35)
EGDSLRYYYQN	GKQNRPS	SSRMSSGFQVF	ND ND ND	2/9 (4.33)
EGDSLSYYYAN	GKNNRPS	VSRDSCGFQVF	ND ND ND	0/9
EGDSLRYYYDN	PKLNRPS	SSRDSSGFQVF	ND ND ND	4/9 (4.62)
EGDSLRYYKAN	EKNPRPS	SSRDSSGFQVF	ND ND ND	3/9 (3.29)